The list shows a part of the results, in another mix than the full data. Results filed as inconclusive are left out. The source made the active and inactive calls. The call rests on the fitted dose curve; in most records, active means well fitted inhibition curve with a large enough effect; inconclusive means small, poorly fitted or top-dose-only effect; inactive means no such curve, though single readings can be large or run the other way.
Assay: qHTS for Inhibitors of TGF-b: Confirmation of Cherry Picks; further: nearly all actives have a fitted effect of over 65% in size
Details: HepG2 CAGA-GFP TGF-b reporter, GFP fluorescence, 18 h; cells stimulated with TGF-beta, 500 pg/mL
From the text: TGF-b is a main component in the TGF-b signaling pathway which plays diverse roles in cellular and development pathways. TGF-b is mediated through transcription factors called "Smads". Although the Smad-dependent pathway is the primary canonical TGF-b signaling mode, TGF-b1 can also activate alternative signaling pathways, including those involving MAPK (ERK, JNK and p38). This interaction may mediate or enhance Smad-dependent responses, or can exert Smad-independent effects. The complexity of this signaling cascade allows the TGF-b superfamily to perform unique, overlapping or redundant functions. […] We aim to identify Smad3-small molecule antagonists using a quantitative high throughput screening (qHTS) approach. […]
Suspensions of trypsinized HEPG2 CAGA-GFP cells were dispensed into white, tissue culture-treated, solid 1536-well plates at 5uL/well (1000 cells/well final concentration) in DMEM medium supplemented with 1% FBS. […] The plates were measured on an Acumen eX3 Explorer plate reader for GFP fluorescence (ex488/em500-530). GFP values were calculated by determining the mean GFP fluorescence of individual cells, and compiling these values for each well to determine a total well GFP signal. The %Activity was determined from the corrected fluorescence values. […] Concentration-response curves were fitted to the signals arising from the resulting fluorescence. […]
Potency means the concentration at half of the fitted maximal effect.

| Compound | Potency |
| --- | --- |
| O=c1c2cc([N+](=O)[O-])ccc2[nH]c2c([N+](=O)[O-])cc([N+](=O)[O-])cc12 | active: 0.58 µM |

— PubChem BioAssay AID720534 (National Center for Advancing Translational Sciences (NCATS), 2013)
